Results as given in article PMC5962653 (Frontiers in Microbiology, 2018).

Legend:
[1] = system: K. pneumoniae OXA-48 plus CTX-M-15 strain; conditions: free serum AUC0-24 of healthy mice over MIC of the OXA-48 plus CTX-M-15 strain
Description: A previously characterized murine pneumonia model was used ([Pachon-Ibanez et al., 2010]; [Docobo-Perez et al., 2012]; [Parra Millan et al., 2016]) with the OXA-48 plus CTX-M-15 strain, as OXA-48 is the most prevalent carbapenemase in Spain nowadays ([Palacios-Baena et al., 2016]). Anesthetized mice were infected intratracheally, using 50 μl of a final inoculum of 8.18 log10 cfu/mL. Therapies were initiated 4 h post-infection and treatment groups and dosages were the same as in the peritoneal sepsis model. Mice were treated and monitored over 72 h. After death or sacrifice of the mice at 72 h, blood and lungs samples were aseptically obtained and processed as detailed above.
(§1) Mortality and bacteremia rates are expressed as percentages and bacterial tissue concentrations (log10 cfu/g) as means ±SD. The two-tailed Fisher’s test, analysis of variance (ANOVA), and the Dunnet and Tukey post hoc tests were used. A P < 0.05 was considered significant. The SPSS v22.0 statistical package was used (SPSS Inc).

[2] = system: K. pneumoniae VIM-1 strain; conditions: free serum AUC0-24 of healthy mice over MIC of the VIM-1 strain
Description: A previously described murine peritoneal sepsis model was used ([Parra Millan et al., 2016]). Briefly, groups of un-anesthetized C57BL/6 mice were infected by ip injection of 0.5 mL of the Minimal Lethal Dose (MLD) of each strain, corresponding to (log10 cfu/mL): 8.97, 8.94 9.35, and 8.38 for VIM-1, VIM-1/DHA-1, OXA-48 plus CTX-M-15, and KPC-3 strains, respectively. Treatments were initiated 4 h post-inoculation. […] Afterward, mice were treated and monitored for 72 h. […] Samples were extracted and processed immediately after the death of mice; the survivor mice were sacrificed (sodium thiopental) at the 72 h. Aseptic thoracotomies were carried out, and blood samples were obtained for qualitative blood cultures; results were expressed as positive (≥1 cfu present in the plate) or negative. Spleens were aseptically extracted, weighed, and homogenized in sterile saline (Stomacher 80; Tekmar Co., Cincinnati, OH, United States) before quantitative cultures (log10 cfu/g) in Columbia agar with 5% sheep blood plates.
as §1

Substance: colistimethate sodium [CMS]
- fAUC0-24/MIC [1]: 2.30
- fAUC0-24/MIC [2]: 2.30
